Drawing on patent publication US10709712B2 (dated 2020), this text covers IC50 for 1 substance.

By UniProt entry, the sequences of proteins in these tests, tags left out.
UniProt P15056, whole entry V600E: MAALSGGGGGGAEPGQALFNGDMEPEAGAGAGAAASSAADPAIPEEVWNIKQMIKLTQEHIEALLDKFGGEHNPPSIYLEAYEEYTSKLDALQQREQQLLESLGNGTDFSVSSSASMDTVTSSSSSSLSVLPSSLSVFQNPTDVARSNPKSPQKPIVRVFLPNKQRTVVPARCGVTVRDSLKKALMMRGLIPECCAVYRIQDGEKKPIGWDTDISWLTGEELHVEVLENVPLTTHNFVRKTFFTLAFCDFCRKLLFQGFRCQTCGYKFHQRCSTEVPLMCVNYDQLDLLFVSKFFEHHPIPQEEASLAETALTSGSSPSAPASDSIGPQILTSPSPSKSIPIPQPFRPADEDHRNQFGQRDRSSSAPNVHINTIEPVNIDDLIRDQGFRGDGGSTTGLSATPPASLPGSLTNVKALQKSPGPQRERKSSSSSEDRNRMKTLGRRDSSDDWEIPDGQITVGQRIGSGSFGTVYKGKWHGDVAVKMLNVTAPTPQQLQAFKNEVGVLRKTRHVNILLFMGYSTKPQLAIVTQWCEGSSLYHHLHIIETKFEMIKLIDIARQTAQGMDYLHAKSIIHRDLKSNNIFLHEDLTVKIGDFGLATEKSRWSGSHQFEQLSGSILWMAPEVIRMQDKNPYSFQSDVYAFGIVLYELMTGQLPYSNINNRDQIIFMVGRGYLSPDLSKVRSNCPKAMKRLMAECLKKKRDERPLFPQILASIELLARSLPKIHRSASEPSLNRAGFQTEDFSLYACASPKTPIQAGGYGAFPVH

The test has as its target b-Raf(V600E) (Homo sapiens (Human), UniProt P15056, V600E). The settings on record: read-out: b-Raf IC-50; Table 2; Alpha Screen phospho-MEK, reaction 3 hours.

With “N-(4-methyl-3-(7-morpholino-2-oxo-2,3-dihydrobenzo[d]oxazol-5-yl) phenyl)-3-(trifluoromethyl) benzamide [Example 827]”, the IC50 is 1.4 nM.
